Laboratory results from patent US7345051B2, “Mucin synthesis inhibitors” (Genaera Corporation, priority 2000, dated 2008).

Test system: activated Caco2 cells
Experiment: Mucin production (PAS staining) by activated Caco2 cells
Details: FIG. 2; concentration not given

Tolfenamate
Mucin production by activated Caco2 cells: inhibited
